{"sequences": {"note": "By UniProt entry, the sequences of proteins in these tests, tags left out.", "UniProt P08173, whole entry": "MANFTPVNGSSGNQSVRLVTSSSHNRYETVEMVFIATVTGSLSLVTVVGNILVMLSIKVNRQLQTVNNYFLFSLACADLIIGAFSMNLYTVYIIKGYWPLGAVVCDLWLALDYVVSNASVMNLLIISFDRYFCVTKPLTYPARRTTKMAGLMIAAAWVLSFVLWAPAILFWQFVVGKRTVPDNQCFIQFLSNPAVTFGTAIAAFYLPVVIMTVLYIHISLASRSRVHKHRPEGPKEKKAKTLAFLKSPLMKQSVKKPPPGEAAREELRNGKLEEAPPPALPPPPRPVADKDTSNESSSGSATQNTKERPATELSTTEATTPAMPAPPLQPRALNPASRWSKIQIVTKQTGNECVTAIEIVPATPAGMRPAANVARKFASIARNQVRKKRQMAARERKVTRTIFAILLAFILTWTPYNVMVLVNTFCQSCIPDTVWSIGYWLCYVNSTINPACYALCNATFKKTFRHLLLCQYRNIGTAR"}, "source": "PubChem BioAssay AID624125", "about": "(The Scripps Research Institute Molecular Screening Center, 2012)", "note": "The list shows a part of the results, in another mix than the full data. Activity calls are given as the source filed them.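 Rule for the calls: active = inhibition above its plate's cutoff, the mean inhibition of sample wells plus 3 SD (cut at about 27% in these data); inactive = the rest.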", "data": [{"target": "Muscarinic acetylcholine receptor M4 (Homo sapiens) (UniProt P08173)", "assay": "CHRM4 blockers of acetylcholine calcium response – CHO cells, Fluo-8 calcium fluorescence, primary screen (AID 624125);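 note: 0% = acetylcholine EC80 with DMSO and 100% = DMSO without agonist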", "conditions": "CHO-hM4 cells, ACh EC80, Fluo-8 calcium fluorescence; at 3 µM; hits give high values", "values": [{"smiles": "CCOC(=O)N1CCC(Nc2ccc(OC)cc2)CC1", "inhibition": "inactive: 4.93%"}, {"smiles": "COc1ccc(Cl)cc1C(=O)NCC1(N2CCOCC2)CCCCC1", "inhibition": "inactive: 0.07%"}, {"smiles": "O=c1[nH]c2ccccc2n1C1CCN(C(c2cc3ccccc3o2)c2nnnn2C2CCCCC2)CC1", "note": "(centres undefined)", "inhibition": "inactive: 3.04%"}, {"smiles": "O=C(NCC1(N2CCCCC2)CCCCC1)c1ccc(Cl)s1", "inhibition": "inactive: -2.26%"}, {"smiles": "N#CC1(Nc2ccccc2)CCN(Cc2ccccc2)CC1", "inhibition": "inactive: 0.55%"}, {"smiles": "CCOc1ccc(C)cc1CN(CCCl)CCCl", "inhibition": "inactive: -3.59%"}, {"smiles": "O=C1CCN(Cc2ccccc2)CC1", "inhibition": "inactive: -17.3%"}, {"smiles": "CC(C)(C)n1nnnc1C(c1ccccc1)N1CCC(n2c(=O)[nH]c3ccccc32)CC1", "note": "(centres undefined)", "inhibition": "inactive: -13.6%"}, {"smiles": "CCOC(=O)N1CCC(Nc2ccc(F)cc2)CC1", "inhibition": "inactive: 11.1%"}, {"smiles": "COc1ccc(NC2CCN(CCc3ccccc3)CC2)c(OC)c1", "inhibition": "inactive: -1.43%"}, {"smiles": "O=C(NCC1(N2CCCCC2)CCCCC1)c1ccc(F)cc1", "inhibition": "inactive: 12.8%"}, {"smiles": "CCCCOc1ccc(C(=O)NCC2(N3CCOCC3)CCCCC2)cc1", "inhibition": "inactive: -1.31%"}, {"smiles": "CCCCn1nnnc1C(c1cc2ccccc2o1)N1CCC(n2c(=O)[nH]c3ccccc32)CC1", "note": "(centres undefined)", "inhibition": "inactive: -3.91%"}, {"smiles": "O=P1(N(CCCl)CCCl)SCCCS1", "inhibition": "inactive: -11.9%"}, {"smiles": "O=c1[nH]c2ccccc2n1C1CCN(C(c2ccccc2)c2nnnn2C2CCCCC2)CC1", "note": "(centres undefined)", "inhibition": "inactive: 1.39%"}, {"smiles": "O=c1[nH]c2ccccc2n1C1CCN(C(c2cccc3ccccc23)c2nnnn2C2CCCC2)CC1", "note": "(centres undefined)", "inhibition": "inactive: -2.11%"}, {"smiles": "COc1cc(C(=O)NCC2(N(C)C)CCCCC2)ccc1OC(F)F", "inhibition": "inactive: -6.59%"}, {"smiles": "CCOC(=O)N1CCC(Nc2cccc(C)c2)CC1", "inhibition": "inactive: -0.38%"}, {"smiles": "O=C(NCC1(N2CCCCC2)CCCCC1)c1ccc(OC(F)F)cc1", "inhibition": "inactive: 2.89%"}, {"smiles": "CC(C)(C)n1nnnc1C(c1ccccc1OC(F)(F)F)N1CCC(n2c(=O)[nH]c3ccccc32)CC1", "note": "(centres undefined)", "inhibition": "inactive: -4.25%"}, {"smiles": "O=C(NCC1(N2CCCCC2)CCCCC1)c1cccc([N+](=O)[O-])c1", "inhibition": "inactive: 1.27%"}, {"smiles": "CSc1ccc(C(=O)NCC2(N3CCOCC3)CCCCC2)cc1", "inhibition": "inactive: -3.76%"}, {"smiles": "N#CC1(Nc2ccccc2)CCN(CCc2ccccc2)CC1", "inhibition": "inactive: -8.6%"}, {"smiles": "O=c1[nH]c2ccccc2n1C1CCN(C(c2ccccc2OC(F)(F)F)c2nnnn2C2CCCC2)CC1", "note": "(centres undefined)", "inhibition": "inactive: -27.3%"}, {"smiles": "CCN1CCC(Nc2ccc(Cl)cc2)CC1", "inhibition": "inactive: -0.81%"}, {"smiles": "O=C(NCC1(N2CCCCC2)CCCCC1)c1cccc(C(F)(F)F)c1", "inhibition": "inactive: 4.24%"}, {"smiles": "CCCCn1nnnc1C(c1cccc2ccccc12)N1CCC(n2c(=O)[nH]c3ccccc32)CC1", "note": "(centres undefined)", "inhibition": "inactive: 0.34%"}, {"smiles": "COc1ccc(NC2CCN(C(=O)OC(C)(C)C)CC2)cc1", "inhibition": "inactive: 4.32%"}, {"smiles": "CC(C)c1ccc(C(=O)NCC2(N3CCOCC3)CCCCC2)cc1", "inhibition": "inactive: -5.32%"}, {"smiles": "O=C(NCC1(N2CCOCC2)CCCCC1)c1cc(=O)[nH]c2ccccc12", "inhibition": "inactive: -8.88%"}, {"smiles": "COc1cc(C(=O)NCC2(N3CCCCC3)CCCCC2)ccc1OC(F)F", "inhibition": "inactive: -13.9%"}, {"smiles": "CN(C)c1cccc(C(=O)NCC2(N3CCCCC3)CCCCC2)c1", "inhibition": "inactive: -9.41%"}, {"smiles": "COc1ccc(CN(CCCl)CCCl)cc1Cl", "inhibition": "inactive: -7.09%"}, {"smiles": "CCCCn1nnnc1C(c1ccccc1OC(F)(F)F)N1CCC(n2c(=O)[nH]c3ccccc32)CC1", "note": "(centres undefined)", "inhibition": "inactive: -7.34%"}, {"smiles": "CC(C)c1ccc(NC2CCN(C(=O)OC(C)(C)C)CC2)cc1", "inhibition": "inactive: -11.4%"}, {"smiles": "CCCCn1nnnc1C(c1ccnc2ccccc12)N1CCC(n2c(=O)[nH]c3ccccc32)CC1", "note": "(centres undefined)", "inhibition": "inactive: -7.71%"}, {"smiles": "O=C(NCC1(N2CCOCC2)CCCCC1)c1cc(F)c(F)cc1Cl", "inhibition": "inactive: -7.87%"}, {"smiles": "CCC(c1nnnn1C(C)(C)C)N1CCC(n2c(=O)[nH]c3ccccc32)CC1", "note": "(centres undefined)", "inhibition": "inactive: -27.4%"}, {"smiles": "COc1cc(OC)c(C(=O)NCC2(N(C)C)CCCCC2)cc1OC", "inhibition": "inactive: 2.71%"}, {"smiles": "O=C(NCC1(N2CCCCC2)CCCCC1)c1cncc(Br)c1", "inhibition": "inactive: 8.66%"}, {"smiles": "CN1CCC(Nc2cccc(F)c2)CC1", "inhibition": "inactive: 4.62%"}, {"smiles": "CCCOc1ccc(C(=O)NCC2(N(C)C)CCCCC2)cc1OC", "inhibition": "inactive: -1.1%"}, {"smiles": "Cc1ccc(C(=O)NCC2(N(C)C)CCCCC2)o1", "inhibition": "inactive: -22.8%"}, {"smiles": "COc1ccc(C(c2nnnn2C2CCCC2)N2CCC(n3c(=O)[nH]c4ccccc43)CC2)cc1", "note": "(centres undefined)", "inhibition": "inactive: -4.19%"}]}]}
